Sequences of proteins named here, by UniProt entry; tags and fusion partners are left off. A change or cut given only in a name is not applied to a line headed by its entry.
UniProt Q9Y5Y4: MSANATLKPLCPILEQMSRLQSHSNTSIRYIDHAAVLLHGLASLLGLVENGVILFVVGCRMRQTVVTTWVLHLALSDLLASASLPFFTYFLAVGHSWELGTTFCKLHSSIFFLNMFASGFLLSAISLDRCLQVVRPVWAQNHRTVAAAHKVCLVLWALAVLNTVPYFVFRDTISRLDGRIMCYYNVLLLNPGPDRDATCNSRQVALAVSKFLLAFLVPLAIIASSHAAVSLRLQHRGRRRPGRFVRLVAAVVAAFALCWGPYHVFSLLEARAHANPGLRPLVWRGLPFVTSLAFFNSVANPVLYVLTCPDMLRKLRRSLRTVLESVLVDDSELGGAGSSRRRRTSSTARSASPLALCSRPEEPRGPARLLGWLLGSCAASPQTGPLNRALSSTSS

In patent US9096595B2, “7-(heteroaryl-amino)-6,7,8,9-tetrahydropyrido[1,2-a]indol acetic acid derivatives and their use as prostaglandin D2 receptor modulators” (Actelion Pharmaceuticals Ltd, priority 2011, dated 2015):

Columns and labels:
hCRTH2 receptor [1] = target: T1, hCRTH2 receptor (Homo sapiens (Human), UniProt Q9Y5Y4); assay: Radioligand displacement assay in presence of human serum albumin (HSA); details: 3H-PGD2 2.5 nM, HEK293-hCRTH2 membrane fragments, Binding-Buffer-HSA with 0.5% human serum albumin instead of 0.1% BSA
Protocol: (§1) First, recombinant HEK293-hCRTH2 cells were detached from culture plates into 5 ml buffer A/plate (Buffer A: 5 mM Tris, 1 mM MgCl2-6H2O pH=7.4) using a rubber policeman. Cells were then transferred into centrifugation tubes and centrifuged for 5 min at 400 g. The cell pellet was resuspended in the same buffer and tubes were frozen at −80° C. Cells were thawed and membrane fragments were generated by homogenization using a polytron homogenizer (30 seconds). The membrane fragments were then centrifuged at 3000 g for 20 minutes and resuspended in buffer C (Buffer C: 75 mM Tris, 25 mM MgCl2, 250 mM Saccharose pH 7.4). Aliquots of membrane fragments were stored at −20° C.
(§2) Binding assay was performed in a final assay volume of 250 μl. First, 25 μl of test compound, previously diluted in Binding-Buffer (Binding-Buffer: 50 mM Tris-Base, 100 mM NaCl, 1 mM EDTA, 0.1% BSA (protease free), 0.01% NaN3, 10 mM MnCl2 pH 7.0) was placed into each well. After addition of 75 μl Binding-Buffer, 50 μl of the radioligand ^3H-PGD2 (at 2.5 nM (220.000 dpm/well) from ANAWA ART0662) was added to each well. Binding assay was started by addition of 100 μl CRTH2 membrane fragments, reaching a final concentration of 20 μg/well. For non-specific binding, PGD2 was added to the reaction mixture to 10 mM final concentration. This assay mix was incubated for 90 minutes at room temperature and then filtered through a GF/C filter 96-well plate which was pre-soaked for 3 hours in 0.5% polyethyleneimine (PEI). The filter-wells were washed three times with ice cold Binding-Buffer. Then, 40 μl of Microscint-40 (Packard) was added to each well and the retained radioactivity quantified in a Topcount (Packard).
Radioligand displacement assay in presence of human serum albumin (HSA) was performed as described above, with following modifications. Binding-Buffer-HSA: Binding-buffer+0.5% Sigma Albumin from Human serum A1887 (instead of 0.1% BSA). A volume of 25 μl test compound, previously diluted in Binding-Buffer-HSA was placed into each well. […]

hCRTH2 receptor [2] = target: T1, hCRTH2 receptor; assay: hCRTH2 receptor membranes radioligand (3H-PGD2) displacement assay; details: 3H-PGD2 2.5 nM, HEK293-hCRTH2 membrane fragments, Binding-Buffer with 0.1% BSA
Protocol: as §1
as §2, with “For non-specific binding, PGD2 was added to the reaction mixture to 10 mM final concentration. This assay mix was incubated for 90 minutes at room temperature and then filtered through a GF/C filter 96-well plate which was pre-soaked for 3 hours in 0.5% polyethyleneimine (PEI). The filter-wells were washed three times with ice cold Binding-Buffer.” left out

CN(c1ncc(F)cn1)C1CCc2c(CC(=O)O)c3ccc(Cl)cc3n2C1 (centres unmarked) [Example 30, 2-(3-chloro-7-((5-fluoropyrimidin-2-yl)(methyl)amino)-6,7,8,9-tetrahydropyrido[1,2-a]indol-10-yl)acetic acid]
IC50 (hCRTH2 receptor [1]): 9 nM | IC50 (hCRTH2 receptor [2]): 10 nM

CN(c1ncc(F)cn1)[C@@H]1CCc2c(CC(=O)O)c3ccc(Cl)cc3n2C1 [Example 33, (R)-2-(3-chloro-7-((5-fluoropyrimidin-2-yl)(methyl)amino)-6,7,8,9-tetrahydropyrido[1,2-a]indol-10-yl)acetic acid]
IC50 (hCRTH2 receptor [1]): 57 nM

CN(c1ncc(F)cn1)[C@H]1CCc2c(CC(=O)O)c3ccc(Cl)cc3n2C1 [Example 32, (S)-2-(3-chloro-7-((5-fluoropyrimidin-2-yl)(methyl)amino)-6,7,8,9-tetrahydropyrido[1,2-a]indol-10-yl)acetic acid]
IC50 (hCRTH2 receptor [1]): 2 nM | IC50 (hCRTH2 receptor [2]): 0.8 nM
